Test results taken from patent US10532053B2, “Histone deacetylase inhibitor, and preparation method and use thereof” (GUANGDONG ZHONGSHENG PHARMACEUTICAL CO., LTD, priority 2015, dated 2020).

Target: T1, HDAC10 (Homo sapiens, UniProt Q969S8)
T1 sequence (Q969S8 1-669): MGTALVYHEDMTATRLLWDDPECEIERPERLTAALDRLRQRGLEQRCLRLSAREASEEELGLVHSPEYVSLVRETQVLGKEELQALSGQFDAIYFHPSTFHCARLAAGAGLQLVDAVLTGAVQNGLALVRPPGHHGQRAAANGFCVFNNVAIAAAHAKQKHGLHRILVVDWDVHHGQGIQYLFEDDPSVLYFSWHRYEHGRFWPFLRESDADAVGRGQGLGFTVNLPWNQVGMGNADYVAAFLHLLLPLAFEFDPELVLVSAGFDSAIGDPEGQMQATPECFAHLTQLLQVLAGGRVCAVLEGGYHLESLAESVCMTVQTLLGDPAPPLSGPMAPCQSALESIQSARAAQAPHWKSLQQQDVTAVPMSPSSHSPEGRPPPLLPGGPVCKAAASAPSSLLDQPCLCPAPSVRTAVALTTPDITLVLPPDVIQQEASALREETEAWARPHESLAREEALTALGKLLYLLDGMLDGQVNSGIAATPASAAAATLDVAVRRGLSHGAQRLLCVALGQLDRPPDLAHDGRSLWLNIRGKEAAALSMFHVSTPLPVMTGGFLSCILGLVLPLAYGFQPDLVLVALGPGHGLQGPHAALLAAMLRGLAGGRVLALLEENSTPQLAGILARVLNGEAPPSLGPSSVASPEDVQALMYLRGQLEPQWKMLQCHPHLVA
Conditions: read-out: IC50 HDAC10; Table 4, Class IIb

`O=C(CCCCCCC(=O)Nc1ccccc1)NO` [SAHA, reference compound] showed an IC50 of 170 ± 10 nM.
